The source of these data is PubChem BioAssay AID2549 (National Center for Advancing Translational Sciences (NCATS), 2010).

Sequences of proteins named here, by UniProt entry; tags and fusion partners are left off.
UniProt P46063, whole entry: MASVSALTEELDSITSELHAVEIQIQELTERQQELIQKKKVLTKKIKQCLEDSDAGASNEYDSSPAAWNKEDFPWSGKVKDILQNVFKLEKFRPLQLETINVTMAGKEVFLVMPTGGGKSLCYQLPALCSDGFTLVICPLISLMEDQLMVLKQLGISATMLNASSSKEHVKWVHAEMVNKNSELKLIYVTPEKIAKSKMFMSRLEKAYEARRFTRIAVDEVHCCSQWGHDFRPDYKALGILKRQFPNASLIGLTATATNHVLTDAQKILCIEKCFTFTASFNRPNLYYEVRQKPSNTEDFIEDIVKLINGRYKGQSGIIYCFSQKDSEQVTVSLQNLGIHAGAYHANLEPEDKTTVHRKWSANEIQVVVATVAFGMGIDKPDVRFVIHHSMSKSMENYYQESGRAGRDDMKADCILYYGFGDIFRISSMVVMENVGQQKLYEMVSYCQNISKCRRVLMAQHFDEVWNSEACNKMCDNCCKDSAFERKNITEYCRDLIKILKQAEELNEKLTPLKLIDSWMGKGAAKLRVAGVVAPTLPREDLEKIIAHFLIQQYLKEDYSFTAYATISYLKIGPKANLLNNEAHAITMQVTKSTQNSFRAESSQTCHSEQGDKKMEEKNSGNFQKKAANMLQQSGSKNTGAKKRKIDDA

This is a selection; strong and weak results do not stand in their true shares. Some results for these compounds are left out of this collection, so the calls shown say nothing about other tests. Activity calls are given as the source filed them. Calls follow the shape of the dose curve; as a rule, active = well fitted inhibition curve with a large enough effect; inconclusive = small, poorly fitted or top-dose-only effect; inactive = flat fitted curve, though single readings scatter.

The test addresses ATP-dependent DNA helicase Q1 (Homo sapiens) (UniProt P46063). The test is described as follows: qHTS Assay for Inhibitors of RecQ-Like Dna Helicase 1 (RECQ1). Also: nearly all actives have a fitted effect of over 30% in size.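 As to activity, negative = inhibition: plate controls were vehicle for no effect and no enzyme for full effect.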 As to conditions: RECQ1 DNA unwinding, red fluorescence kinetic read; activity, negative = inhibition: at 57.3 µM (top of the series). An excerpt: Survival of cells and the faithful propagation of the genome depend on elaborate mechanisms of detecting and repairing DNA damage. Treatment of advanced cancer relies on radiation therapy or chemotherapy, which kill cancer cells by causing extensive DNA damage. It is often found, that cancer cells develop resistance to therapy through enhanced activity of DNA repair functions; this has led to an increased interest in developing drugs that interfere with DNA repair, which could sensitize cancer cells to conventional therapy.
This validation qHTS assay pertains to human RECQ1, which is important in resolving abnormal DNA structures formed during replication or homologous recombination. Shutting down the expression of RECQ1 leads to chromosomal instability and higher radiation sensitivity in cultured cells.
The validation assay was a fluorescence quenching based kinetic qHTS for RECQ1 Helicase DNA unwinding. The activity was measured as ATP-dependent separation of a 20-bp DNA duplex extended by 30-nt single-stranded tails (forked duplex). The forked DNA substrate was tagged with rhodamine fluorophore (carboxytetramethyl rhodamine, TAMRA) and BHQ-2 (Black Hole Quencher 2) dark quencher. Strand separation results in an increase in the fluorescence of TAMRA (excitation 525 nm, emission 598 nm). This substrate construct operates in a red-shifted region where very few compound library members have been noted to fluoresce (PubChem AIDs 593 and 594). An additional feature of the assay is the inclusion of 2.5 ug/ml poly (dIdC), to reduce interference by compounds such as DNA intercalators, a major source of false inhibitors.
Opher Gileadi, Structural Genomics Consortium, University of Oxford
Screening Center PI: Austin, C.P.
Screening Center: NIH Chemical Genomics Center [NCGC]
Three uL of reaction buffer (25 mM Tris-HCl (pH 8.0), 5 mM NaCl, 2 mM MgCl2, 1mM DTT, 0.01% Tween- 20, and 2.5 ug/ml poly(dI-dC), including enzyme (50 nM RECQ1T1), were dispensed into a 1536-well Greiner black assay plate via solenoid-valve based nanoliter dispensers. Compounds (23 nl each in columns 5-48) and control (23 nl each in column 2 as dose-response) were transferred via a Kalypsys pintool equipped with a 1536-pin array. The plates were incubated for 15 min at room temperature, and then 1 ul of substrates (200 nM DNA and 2 mM ATP, final concentrations) was added to start the reaction. The plate was transferred into a ViewLux high-throughput CCD imager where the reaction progress was measured in a discontinuous kinetic mode (two reads spaced 2 hours apart, with intermediate room temperature incubation of the covered assay plate) by using standard red-fluorescence optics (excitation filter 525 nm, emission filter 598 nm). Enzyme-free and vehicle (DMSO) controls were included for signal normalization.
A general note: qHTS replaces the single test concentration by a dilution series.
In the case of `CN(C)c1cccc(C(=O)NCC2(N(C)C)CCCCC2)c1`, the activity, negative = inhibition is inactive: -8.63%.
The value for `COc1ccc(Br)c(C(=O)NCC2(N3CCCCC3)CCCCC2)c1` was “inactive”; that for `O=C(OC1CN2CCC1CC2)C(CO)(c1ccccc1)c1ccccc1` (configuration not stated) was inactive: -8.13%.
Turning to `COc1cccc(C(=O)NCC2(N3CCCCC3)CCCCC2)c1`, the activity, negative = inhibition is inactive: -4.14%.
For `CCN1CCCC(OC(=O)C2(O)c3ccccc3C=Cc3ccccc32)C1` (configuration not stated) the value was inactive: -6.28%.
For `C=CCN1CCN(CCOC(=O)C(O)(c2ccccc2)c2ccccc2)CC1` the value was “inactive”.
For `CCCCC/C=C\C/C=C\C/C=C\C/C=C\CCCCP(=O)(F)OC` (configuration not stated) the value was “inactive”.
With `CN(C)C1CCCC1OC(=O)C(O)(c1ccccc1)c1ccccc1` (configuration not stated), the activity, negative = inhibition is inactive: -4.99%.
The value for `Cc1ccccc1C(=O)NCC1(N2CCCCC2)CCCCC1` was inactive: -0.201%; that for `CC(C)N1C(=O)CC2(CCN(CCOC(=O)C(O)(c3ccccc3)c3ccccc3)CC2)C1=O` was inactive: -9.52%; that for `CCN(CC)CC(C)C(C)OC(=O)C(O)(c1ccccc1)c1ccccc1` (configuration not stated) was inactive: 3.04%.
The value for `O=C(NCC1(N2CCCCC2)CCCCC1)c1cc([N+](=O)[O-])ccc1Cl` was inactive: -2%.
